# According to PubChem BioAssay AID1347076 (National Center for Advancing Translational Sciences (NCATS), 2019):
# The entries are a selection whose mix differs from that of the whole data set. Results filed as inconclusive are left out. Active and inactive are the calls of the source. The call rests on the fitted dose curve; in most records, active means well fitted cell-killing curve with a large enough effect; inconclusive means small, poorly fitted or top-dose-only effect, or effect the other way; inactive means flat fitted curve, though single readings scatter.
# Assay: qHTS assay for MDR1-selective chemotherapeutics: Primary screen using the drug-selected MDR subline cells KB-V1; further: nearly all actives have a fitted effect of over 60% in size
# Conditions: KB-V1 MDR cells viability, CellTiter-Glo, 72 h; series mostly up to 46.1 µM; activity change, negative = cytotoxicity: at the top concentration
# Excerpt: A prime difficulty in effectively treating cancer is the development of cellular resistance to multiple structurally unrelated anticancer drugs, a phenomenon known as multidrug resistance (MDR). […] Numerous strategies to overcome P-gp-mediated MDR have been explored, including the design of drugs that evade recognition and efflux, and development of inhibitors to block efflux and restore drug accumulation. […] An alternative approach is to exploit resistance by identifying drugs that target MDR cells over the non-resistant parental cells from which they were selected. […] The development of MDR1-selective agents represents a new strategy for resolving multidrug resistance, as it remains a long-standing clinical challenge for cancer chemotherapy.
# Our goal is to identify compounds that selectively kill P-gp-expressing MDR cells. We will identify MDR1-selective compounds by comparing toxicity of compounds in the screening library against parental, drug-naive (KB-3-1) adenocarcinoma cells as well as their drug-selected MDR sub-line (KB-V1). The differential toxicity of compounds against these two cell lines will be used to identify MDR1-selective compounds, whose cytotoxicity is potentiated, rather than diminished, by P-gp expression. This assay will be utilized to conduct a quantitative high-throughput screen (qHTS) in collaboration with the NIH Chemical Genomics Center to identify selective agents, and probe hits arising from the screen will be validated using secondary assays and characterized through a well-established follow-up research program. This screen was run against the entire NCGC library collection of about 400,000 compounds.
# NIH Molecular Libraries Probe Production Network [MLPCN]
# NIH Chemical Genomics Center [NCGC]
# PI: Michael Gottesman, National Cancer Institute, NIH
# Briefly, 5 microL of media containing either KB-V1 cells (columns 1-2, 4-48) are dispensed into Greiner white, treated solid-bottom 1536-well assay plates (media-only control is added to column 3). Compounds are then transferred via Kalypsys pin tool equipped with 1536-pin array (10 nL slotted pins, V&P Scientific, San Diego, CA). Following addition of compound, the plates are incubated at 37 degrees C for 72 hours. CellTiter-Glo (2.5 µL/well) is then added, and the plates are read in a ViewLux reader (Perkin-Elmer, clear luminescence filter, 1 second exposure, 1x binning) following a 10 minute incubation. All cells are dispensed in DMEM phenol-red free media containing 10% FBS.
# Library plates were screened starting from the lowest and proceeding to the highest concentration. Vehicle-only plates, with DMSO being pin-transferred to columns 5-48, will be inserted uniformly at the beginning and the end of each library in order to monitor and record any shifts in the background, which can be affected by reagent dispensers or loss in enzyme activity over time. Screening data will be corrected, normalized, and concentration-effect relationships will be derived by using publicly-available NCGC, NCATS curve fitting algorithms (http://ncgc.nih.gov/pub/openhts).
# On the % scale 0 is the no-effect control and ±100 the full control effect; potency means the concentration at half of the fitted maximal effect.
SMILES,"activity change, negative = cytotoxicity",Potency
COc1cccc([N+](=O)[O-])c1[N+](=O)[O-],inactive: -2.59%,–
c1nnnn1CCn1cnnn1,inactive: 25.2%,–
CC(C)C(=O)NC(Sc1ccccc1)C(Cl)(Cl)Cl (stereo unspecified),inactive: 10.9%,–
O=P(Nc1nccs1)(c1ccccc1)c1ccccc1,inactive: 9.14%,–
C(Cc1nn[nH]n1)Cc1nn[nH]n1,inactive: 23.1%,–
Nc1ccc([As](=O)(O)c2ccc([N+](=O)[O-])cc2)cc1,inactive: -1.84%,–
O=C(OC1CN2CCC1CC2)c1cccc(Cl)c1 (stereo unspecified),inactive: -15.6%,–
O=[N+]([O-])c1ncn(CCn2cnc([N+](=O)[O-])n2)n1,inactive: -5.22%,–
CC(=O)NC(SC(=S)N(C)C)C(Cl)(Cl)Cl (stereo unspecified),inactive: -8.99%,–
O=[As](O)(c1ccccc1)c1ccc(O)cc1,inactive: -3.92%,–
O=P(Nc1nc2ccccc2s1)(c1ccccc1)c1ccccc1,inactive: 3.96%,–
C[C@H]1OP(=O)(Oc2ccccc2)[C@H](O)[C@H](O)[C@H]1N=[N+]=[N-] (stereo partly specified),inactive: 22.8%,–
COc1ccc(N)c([N+](=O)[O-])c1[N+](=O)[O-],inactive: 3.45%,–
Nc1ccc(CCCCOc2ccccc2)cc1,inactive: -11.2%,–
CN(C)C1(CNC(=O)c2ccc(Cl)c(S(N)(=O)=O)c2)CCCCC1,inactive: 0%,–
CC(NC(=O)COC(=O)C(O)(c1ccccc1)c1ccccc1)c1ccccc1 (stereo unspecified),inactive: -25%,–
CN(C)C(=O)Oc1noc2ccccc12,inactive: 4.26%,–
COC(=O)c1cc2c(s1)N=C(c1ccccc1)N(C)P2(=O)N1CCOCC1 (stereo unspecified),inactive: 2.51%,–
CC(=O)NC(SC(=S)N(CC(C)C)CC(C)C)C(Cl)(Cl)Cl (stereo unspecified),inactive: -6.42%,–
O=C(OC1CN2CCC1CC2)c1ccccc1 (stereo unspecified),inactive: 0%,–
CCC(=O)N1C2C3N(C(=O)CC)C1C1N(C(=O)CC)C(C(N1C(=O)CC)N3C(=O)CC)N2C(=O)CC,inactive: 2.92%,–

SMILES,"activity change, negative = cytotoxicity",Potency
O=P1(N(CCCl)CCCl)OCCC2CCCCN21 (stereo unspecified),inactive: 5.05%,–
O=C(NC1CCS(=O)(=O)C1)NP(=S)(Oc1ccccc1)Oc1ccccc1 (stereo unspecified),inactive: 4.09%,–
c1ccc(-c2nn[nH]n2)c(-c2nn[nH]n2)c1,inactive: 3.97%,–
O=[N+]([O-])c1cc([N+](=O)[O-])c2nc[nH]c2c1,inactive: 6.84%,–
Cc1ccc(NP(=O)(Oc2cccc(C)c2)Oc2cccc(C)c2)nc1,inactive: -3.13%,–
CC(=O)Nc1ccc([As](=O)(O)O)c(O)c1,inactive: 18.6%,–
CC(=O)Nc1ccc(Oc2c([N+](=O)[O-])cc([N+](=O)[O-])cc2[N+](=O)[O-])cc1,inactive: 4.21%,–
CC(=O)c1ccc(N2CC2c2ccncc2)cc1 (stereo unspecified),inactive: 16.4%,–
N#C/C(=C\c1ccc(N(CCBr)CCBr)cc1)C(N)=O,–,active: 18.4 µM
COC(=O)C1(C)COP(=O)(NCc2ccccc2)OC1 (stereo unspecified),inactive: 1%,–
Cc1ccccc1CN(C)C(=O)COC(=O)C(O)(c1ccccc1)c1ccccc1,inactive: 13.6%,–
C[C@@H]1C=CCP(=O)(Oc2ccccc2)O1 (stereo partly specified),inactive: 14.1%,–
CCc1cc(O)c([N+](=O)[O-])c(C)c1[N+](=O)[O-],inactive: 0%,–
CC(C)(C)C(=O)NC(Sc1ccccc1)C(Cl)(Cl)Cl (stereo unspecified),inactive: -1.28%,–
O=P1(Nc2nc3ccc(Cl)cc3s2)COc2ccccc2O1 (stereo unspecified),inactive: 14.7%,–
CCOc1ccc(C2=NCC(CBr)S2)cc1 (stereo unspecified),inactive: 11.7%,–
O=[N+]([O-])C1C(O)C(O)C([N+](=O)[O-])C(O)C1O (stereo unspecified),inactive: 6.38%,–
Nc1cc(N)c2nonc2c1[N+](=O)[O-],inactive: -16.4%,–
CC(C)CC(=O)NC(Sc1ccc(Cl)cc1)C(Cl)(Cl)Cl (stereo unspecified),inactive: -9.67%,–
Oc1ccccc1CNc1ccccn1,inactive: -2.58%,–
O=C(NC(Sc1ccncn1)C(Cl)(Cl)Cl)c1ccccc1 (stereo unspecified),inactive: -18.5%,–

SMILES,"activity change, negative = cytotoxicity",Potency
COc1ccccc1OP(=O)(Nc1ccc(C)cn1)Oc1ccccc1OC,inactive: -8.88%,–
Cc1ccc(OP(=O)(Nc2nccs2)Oc2ccc(C)cc2)cc1,inactive: 8.07%,–
CN1CCCC(OC(=O)C(c2ccccc2)c2ccccc2)C1 (stereo unspecified),inactive: -1.17%,–
Clc1ccc(Cl)c(NC2=NCC(CBr)S2)c1 (stereo unspecified),inactive: 12.4%,–
NC(=O)c1cc([N+](=O)[O-])cc([N+](=O)[O-])c1N,inactive: 0.597%,–
O=[N+]([O-])c1cc2c(cc1[N+](=O)[O-])OCO2,inactive: 0.957%,–
Cc1ccc(N/C(=N/P(=O)(N2CCOCC2)N2CCOCC2)N2CCOCC2)cc1,inactive: -13.9%,–
CCN(N=Nc1nonc1N)c1nonc1N,inactive: 0%,–
Nc1cccc2ccc([As](=O)(O)O)cc12,inactive: 1.25%,–
Cc1cc(SC(NC(=O)c2ccc(F)cc2)C(Cl)(Cl)Cl)ncn1 (stereo unspecified),inactive: 20.1%,–
CCOP(=O)(Nc1ccccc1)OCC,inactive: 8.03%,–
Cc1ccc(NP(=O)(Oc2ccccc2F)Oc2ccccc2F)nc1,inactive: 17.6%,–
CC(=O)Nc1ccc([As](=O)(O)O)cc1,inactive: 17.3%,–
O=C(O)c1ccccc1[As](=O)(O)O,inactive: -1.44%,–
CCCC1OP(N)(=O)OCC1CC (stereo unspecified),inactive: 26.2%,–
CN(C)P(=O)(N(C)C)n1c(Nc2ccccc2)nnc1-c1ccccc1,inactive: -1.97%,–
COC(=O)C1(C)COP(=O)(Nc2ccccc2)OC1 (stereo unspecified),inactive: 0.997%,–
O=[N+]([O-])c1cccc(NC2=NCC(CBr)S2)c1 (stereo unspecified),inactive: 4.11%,–
O=C(O)CNc1ccc([As](=O)(O)O)cc1,inactive: 16.7%,–
